{"source": "paper PMC5641599", "about": "(Molecular Metabolism, 2017)", "origin": "cited, not measured here", "key": {"MC4R variants [1]": {"biological_target": "MC4R variants (Homo sapiens, UniProt P32245, T11A)", "conditions": "MC4R T11A; ref Xiang Z, Biochemistry, 2006; cited from earlier work"}, "MC4R variants [2]": {"biological_target": "MC4R variants (Homo sapiens, UniProt P32245, I226T)", "conditions": "MC4R I226T; ref Xiang Z, Biochemistry, 2010; cited from earlier work"}, "MC4R variants [3]": {"biological_target": "MC4R variants (Homo sapiens, UniProt P32245, F51L)", "conditions": "MC4R F51L; ref Xiang Z, Biochemistry, 2010; cited from earlier work"}, "MC4R variants [4]": {"biological_target": "MC4R variants (Homo sapiens, UniProt P32245, R165W)", "conditions": "MC4R R165W; ref Xiang Z, Biochemistry, 2006; cited from earlier work"}, "MC4R variants [5]": {"biological_target": "MC4R variants (Homo sapiens, UniProt P32245, R165Q)", "conditions": "MC4R R165Q; ref Xiang Z, Biochemistry, 2006; cited from earlier work"}, "MC4R variants [6]": {"biological_target": "MC4R variants (Homo sapiens, UniProt P32245, S36T)", "conditions": "MC4R S36T; COS-7 cell line; ref Hughes DA, Hum Genet, 2009; cited from earlier work"}, "MC4R variants [7]": {"biological_target": "MC4R variants (Homo sapiens, UniProt P32245, I186V)", "conditions": "MC4R I186V; ref Wang ZQ, Biochim Biophys Acta, 2011; cited from earlier work"}, "MC4R variants [8]": {"biological_target": "MC4R variants (Homo sapiens, UniProt P32245, H76R)", "conditions": "MC4R H76R; ref Wang ZQ, Biochim Biophys Acta, 2011; cited from earlier work"}, "MC4R variants [9]": {"biological_target": "MC4R variants (Homo sapiens, UniProt P32245, A154D)", "conditions": "MC4R A154D; ref Xiang Z, Biochemistry, 2010; cited from earlier work"}, "MC4R variants [10]": {"biological_target": "MC4R variants (Homo sapiens, UniProt P32245, C271R)", "conditions": "MC4R C271R, cited from earlier work"}, "MC4R variants [11]": {"biological_target": "MC4R variants (Homo sapiens, UniProt P32245, M200V)", "conditions": "MC4R M200V; COS-7 cell line; ref Hinney A, J Clin Endocrinol Metab, 2006; cited from earlier work"}, "MC4R variants [12]": {"biological_target": "MC4R variants (Homo sapiens, UniProt P32245, T112K)", "conditions": "MC4R T112K; COS-7 cell line; ref Hinney A, J Clin Endocrinol Metab, 2006; cited from earlier work"}, "MC4R variants [13]": {"biological_target": "MC4R variants (Homo sapiens, UniProt P32245, I289L)", "conditions": "MC4R I289L; ref Wang ZQ, Biochim Biophys Acta, 2011; cited from earlier work"}, "MC4R variants [14]": {"biological_target": "MC4R variants (Homo sapiens, UniProt P32245, A70T)", "conditions": "MC4R A70T; COS-7 cell line; ref Hinney A, J Clin Endocrinol Metab, 2006; cited from earlier work"}, "MC4R variants [15]": {"biological_target": "MC4R variants (Homo sapiens, UniProt P32245, S58C)", "conditions": "MC4R S58C; ref Xiang Z, Biochemistry, 2006; cited from earlier work"}, "MC4R variants [16]": {"biological_target": "MC4R variants (Homo sapiens, UniProt P32245)", "conditions": "MC4R Y287X; ref Xiang Z, Biochemistry, 2006; cited from earlier work"}, "MC4R variants [17]": {"biological_target": "MC4R variants (Homo sapiens, UniProt P32245, G252S)", "conditions": "MC4R G252S; ref Xiang Z, Biochemistry, 2006; cited from earlier work"}, "MC4R variants [18]": {"biological_target": "MC4R variants (Homo sapiens, UniProt P32245, I102S)", "conditions": "MC4R I102S; ref Xiang Z, Biochemistry, 2006; cited from earlier work"}, "MC4R variants [19]": {"biological_target": "MC4R variants (Homo sapiens, UniProt P32245, S30F)", "conditions": "MC4R S30F; ref Xiang Z, Biochemistry, 2006; cited from earlier work"}, "MC4R variants [20]": {"biological_target": "MC4R variants (Homo sapiens, UniProt P32245, D90N)", "conditions": "MC4R D90N; ref Xiang Z, Biochemistry, 2010; cited from earlier work"}, "MC4R variants [21]": {"biological_target": "MC4R variants (Homo sapiens, UniProt P32245, P48S)", "conditions": "MC4R P48S; ref Xiang Z, Biochemistry, 2010; cited from earlier work"}, "MC4R variants [22]": {"biological_target": "MC4R variants (Homo sapiens, UniProt P32245, T112M)", "conditions": "MC4R T112M; ref Xiang Z, Biochemistry, 2006; cited from earlier work"}, "MC4R variants [23]": {"biological_target": "MC4R variants (Homo sapiens, UniProt P32245, I137T)", "conditions": "MC4R I137T; ref Xiang Z, Biochemistry, 2006; cited from earlier work"}, "MC4R variants [24]": {"biological_target": "MC4R variants (Homo sapiens, UniProt P32245, R18H)", "conditions": "MC4R R18H; ref Xiang Z, Biochemistry, 2010; cited from earlier work"}, "MC4R variants [25]": {"biological_target": "MC4R variants (Homo sapiens, UniProt P32245, V50M)", "conditions": "MC4R V50M; ref Xiang Z, Biochemistry, 2010; cited from earlier work"}, "MC4R variants [26]": {"test_system": "MC4R variants", "conditions": "cited from earlier work"}}, "note": "Where two headings read alike, the source gives them in different places."}
{"substance": "β-MSH", "values": [{"measurement": "cAMP EC50 - Ligand no.2", "setting": "MC4R variants [1]", "value": 0.38, "unit": "WT fold"}, {"measurement": "cAMP EC50 - Ligand no.2 (WT fold)", "setting": "MC4R variants [2]", "value": 1.77, "unit": "WT fold"}, {"measurement": "cAMP EC50 (WT fold)", "setting": "MC4R variants [3]", "value": 25.70, "unit": "WT fold"}, {"measurement": "cAMP EC50 - Ligand no.2 (WT fold)", "setting": "MC4R variants [4]", "value": 18.83, "unit": "WT fold"}, {"measurement": "cAMP EC50 - Ligand no.2 (WT fold)", "setting": "MC4R variants [5]", "value": 15.02, "unit": "WT fold"}, {"measurement": "cAMP EC50 - Ligand no.2", "setting": "MC4R variants [6]", "value": 3.20, "unit": "WT fold"}, {"measurement": "cAMP EC50 - Ligand no.2 (WT fold)", "setting": "MC4R variants [7]", "value": 0.33, "unit": "WT fold"}, {"measurement": "cAMP EC50 (WT fold)", "setting": "MC4R variants [8]", "value": 0.36, "unit": "WT fold"}, {"measurement": "cAMP EC50 - Ligand no.2 (WT fold)", "setting": "MC4R variants [9]", "value": 2.23, "unit": "WT fold"}, {"measurement": "cAMP EC50 - Ligand no.2 (WT fold)", "setting": "MC4R variants [10]; COS-7 cell line, ref Tarnow P, J Biol Chem, 2003", "value": 44.98, "unit": "WT fold"}, {"measurement": "cAMP EC50 - Ligand no.2 (WT fold)", "setting": "MC4R variants [10]; ref Xiang Z, Biochemistry, 2010", "value": 1140.00, "unit": "WT fold"}, {"measurement": "cAMP EC50 - Ligand no.2 (WT fold)", "setting": "MC4R variants [11]", "value": 0.27, "unit": "WT fold"}, {"measurement": "cAMP EC50 (WT fold)", "setting": "MC4R variants [12]", "value": 0.40, "unit": "WT fold"}, {"measurement": "cAMP EC50 (WT fold)", "setting": "MC4R variants [13]", "value": 0.39, "unit": "WT fold"}, {"measurement": "cAMP EC50 (WT fold)", "setting": "MC4R variants [14]", "value": 0.78, "unit": "WT fold"}, {"measurement": "cAMP EC50 (WT fold)", "setting": "MC4R variants [15]", "value": 36.43, "unit": "WT fold"}, {"measurement": "cAMP EC50 - Ligand no.2", "setting": "MC4R variants [16]", "value": 40.48, "unit": "WT fold"}, {"measurement": "cAMP EC50 - Ligand no.2 (WT fold)", "setting": "MC4R variants [17]", "value": 1.26, "unit": "WT fold"}, {"measurement": "cAMP EC50 (WT fold)", "setting": "MC4R variants [18]", "value": 357.14, "unit": "WT fold"}, {"measurement": "cAMP EC50 - Ligand no.2", "setting": "MC4R variants [19]", "value": 0.69, "unit": "WT fold"}, {"measurement": "cAMP EC50 (WT fold)", "setting": "MC4R variants [20]", "value": 753.33, "unit": "WT fold"}, {"measurement": "cAMP EC50 (WT fold)", "setting": "MC4R variants [21]", "value": 2.47, "unit": "WT fold"}, {"measurement": "cAMP EC50 - Ligand no.2 (WT fold)", "setting": "MC4R variants [22]", "value": 0.29, "unit": "WT fold"}, {"measurement": "cAMP EC50 - Ligand no.2 (WT fold)", "setting": "MC4R variants [23]", "value": 1.02, "unit": "WT fold"}, {"measurement": "cAMP EC50 - Ligand no.2", "setting": "MC4R variants [24]", "value": 0.33, "unit": "WT fold"}, {"measurement": "cAMP EC50 (WT fold)", "setting": "MC4R variants [25]", "value": 1.80, "unit": "WT fold"}, {"measurement": "Binding IC50 - Ligand no.2 (WT fold)", "setting": "MC4R variants [26]; MC4R D146N, ref Wang ZQ, Biochim Biophys Acta, 2011", "value": 0.0443, "unit": "WT fold"}, {"measurement": "Binding IC50 - Ligand no.2 (WT fold)", "setting": "MC4R variants [26]; MC4R F201L, ref Wang ZQ, Biochim Biophys Acta, 2011", "value": 0.58, "unit": "WT fold"}, {"measurement": "Binding IC50 - Ligand no.2 (WT fold)", "setting": "MC4R variants [26]; MC4R G231V, ref Wang ZQ, Biochim Biophys Acta, 2011", "value": 0.96, "unit": "WT fold"}, {"measurement": "Binding IC50 - Ligand no.2 (WT fold)", "setting": "MC4R variants [26]; MC4R I186V, ref Wang ZQ, Biochim Biophys Acta, 2011", "value": 0.73, "unit": "WT fold"}, {"measurement": "Binding IC50 - Ligand no.2 (WT fold)", "setting": "MC4R variants [26]; MC4R I195S, ref Wang ZQ, Biochim Biophys Acta, 2011", "value": 0.39, "unit": "WT fold"}, {"measurement": "Binding IC50 - Ligand no.2 (WT fold)", "setting": "MC4R variants [26]; MC4R T248A, ref Huang H, J Mol Endocrinol, 2012", "value": 0.75, "unit": "WT fold"}]}
